{"source": "patent US20250325508A1", "about": "“MODULATORS OF PROTEASOME DYNAMICS AND/OR FUNCTION, COMPOSITIONS, METHODS, AND THERAPEUTIC USES THEREOF” (TECHNION RESEARCH & DEVELOPMENT FOUNDATION LIMITED, priority 2022, published 2025)", "target": "T1, mTOR (Homo sapiens, UniProt P42345)", "T1 construct": "endogenous in cells; host or cells: HeLa, RT4", "test": "Co-localization of mTOR to the lysosomal membrane", "type": "cell-based", "conditions": "Torin1 treatment", "description": "Cells were seeded on glass cover slips for 36 h. Following the indicated treatments, they were fixed with 4% PFA for 15 min, washed with phosphate-buffered saline (PBS) and incubated in PBS containing 10% goat serum for 1 h at room temperature, followed by 2 h incubation with the indicated primary antibody. Following extensive wash with PBS, the fixed cells were incubated with the relevant secondary antibody for 1 h, washed and mounted. Images were acquired using Zeiss LSM 700 confocal microscope (Zeiss, Oberkochen, Germany)."}
{"molecule": "CCC(=O)N1CCN(c2ccc(-n3c(=O)ccc4cnc5ccc(-c6cnc7ccccc7c6)cc5c43)cc2C(F)(F)F)CC1", "note": "[Torin1]", "values": [{"measurement": "mTOR localization to the lysosome", "value": "dissociation of mTOR from the lysosome"}]}
